Results on one molecule are retold here after PubChem BioAssay AID438 (Columbia University Molecular Screening Center, 2006).

The entries are a selection whose mix differs from that of the whole data set. Some of these compounds have results that are not shown, active ones among them. Active and inactive are the calls of the source.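 The calls were made as follows: active = inhibition above 20% together with a positive visual image hit; inconclusive = visual image hit but inhibition not above 20%; inactive = no visual image hit.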

The experiment in a line: inhibitors of TNFa-induced NFkB p65 translocation, primary screen, imaging, HUVEC, MLSMR starter and 10KST1 sets (AID 438).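 Also: compound added about 3h40 before a 20 min TNFalpha stimulation; signal is the nuclear over cytoplasmic p65 intensity ratio per well.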 The note with it: HUVEC TNFa-induced p65 nuclear translocation, at 2 µM, hits give high values, 0% TNFa-plus-vehicle, 100% no-TNFa wells.
Turning to `O=C(OC1CN2CCC1CC2)C(CO)(c1ccccc1)c1ccccc1` (stereo unspecified), the inhibition – broadly, the change of the read-out against control, counted positive when it falls – is inactive: -0.8%.
